Results from PMC3694096, “Development of Novel In Vivo Chemical Probes to Address CNS Protein Kinase Involvement in Synaptic Dysfunction” (PLoS ONE, 2013).

Test: Acid dissociation constant (pKa)
Format: physicochemical
Settings: 22±2°C, methanol co-solvent, 0.15 M KCl; read-out: pKa (potentiometric method), first value

CN(C)c1cc(-c2ccncc2)c(-c2ccc3ccccc3c2)nn1 [MW108, N, N-dimethyl-6-(naphthalen-2-yl)-5-(pyridin-4-yl)pyridazin-3-amine] gave a pKa of 4.48 ± 0.09.
